For this experiment, the target named is 20S prokaryotic proteasome (UniProt Q9P992). Briefly: Table 2: effects of tea polyphenols on 20S prokaryotic proteasome activities. The format is biochemical. The note with it: Table 2, This work. As for the experimental part:
Removal of an —OH from B-ring of (−)-EGCG generates (−)-ECG that has decreased proteasome-inhibitory potency in vitro (0.58 μM). To further examine the effects of B-ring —OH group deletion on proteasome-inhibitory and cell death-inducing abilities, we synthesized several novel EGCG analogs with eliminated —OH groups on the B-ring as well as their putative prodrugs, the peracetate-protected counterparts. By using a purified 20S proteasome and a chymotrypsin-like fluorogenic substrate, the proteasome-inhibitory effects of the following unprotected polyphenol analogs are determined: […]

Amino acid sequences for entries named in this document (tags omitted).
UniProt Q9P992, whole entry: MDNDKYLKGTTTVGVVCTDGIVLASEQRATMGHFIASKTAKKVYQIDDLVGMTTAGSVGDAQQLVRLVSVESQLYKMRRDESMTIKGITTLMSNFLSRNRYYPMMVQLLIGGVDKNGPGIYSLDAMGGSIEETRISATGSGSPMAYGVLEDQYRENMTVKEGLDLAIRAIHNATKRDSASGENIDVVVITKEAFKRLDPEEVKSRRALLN

Results on 2 molecules are retold here after patent US8193377B2, “(−)-epigallocatechin gallate derivatives for inhibiting proteasome” (The Hong Kong Polytechnic University, priority 2004, dated 2012).

As a reminder, the IC50 is the concentration at which inhibition is half-maximal. A high value points to lower potency. As for `O=C(O[C@@H]1Cc2c(O)cc(O)cc2O[C@@H]1c1cccc(O)c1)c1cc(O)c(O)c(O)c1`, the IC50 was 1220 nM. That is a single-digit micromolar value.
`O=C(O[C@H]1Cc2c(O)cc(O)cc2O[C@H]1c1cccc(O)c1)c1cc(O)c(O)c(O)c1`: the 50% inhibitory concentration (IC50) came to 840 nM.
